Results as given in US20260382567A1, “COMBINATION OF QUERCETIN AND PATHENOLIDE AS ANTI-INFLAMMATORY AGENTS FOR USE IN THE TREATMENT OF DERMATITIS” (published 2026).

What was measured:
TNFa = assay: LPS-induced systemic inflammation mouse model, TNFa level; settings: at 4 h after LPS (1 mg/kg); i.p. 1 hour prior; Dexamethasone 5 mg/kg; Parthenolide+Quercetin 4 mg/kg+9 mg/kg; serum or plasma
CXCL1 = assay: LPS-induced systemic inflammation mouse model, CXCL1 level; settings: at 4 h after LPS (1 mg/kg); i.p. 1 hour prior; Dexamethasone 5 mg/kg; Parthenolide+Quercetin 4 mg/kg+9 mg/kg; serum or plasma
MIP1-beta = assay: LPS-induced systemic inflammation mouse model, MIP1-beta level; settings: at 4 h after LPS (1 mg/kg); i.p. 1 hour prior; Dexamethasone 5 mg/kg; Parthenolide+Quercetin 4 mg/kg+9 mg/kg; serum or plasma
[1] = test system: TNFa secretion by human THP-1 macrophages; assay: THP1 cytokine secretion assay (IFN-gamma/LPS-stimulated, PMA-differentiated THP-1 macrophages), secreted TNFa

**Q.** How did the TNFa level (TNFa) turn out when `C[C@@H]1C[C@H]2[C@@H]3CCC4=CC(=O)C=C[C@]4(C)[C@@]3(F)[C@@H](O)C[C@]2(C)[C@@]1(O)C(=O)CO` was run?
**A.** 12 % of the Vehicle in LPS-injected mice

**Q.** What about the CXCL1 level (CXCL1) of the same compound?
**A.** 57 % of the Vehicle in LPS-injected mice

**Q.** What about the MIP1-beta level (MIP1-beta) of the same compound?
**A.** 29 % of the Vehicle in LPS-injected mice

**Q.** `O=c1c(O)c(-c2ccc(O)c(O)c2)oc2cc(O)cc(O)c12` was tested. Which “inhibition of TNFa secretion (in words)” value ([1]; Quercetin alone (0-10 uM)) did it give?
**A.** dose-dependent inhibition of TNFa secretion

**Q.** With `C=C1C(=O)O[C@H]2[C@H]1CC/C(C)=C/CC[C@@]1(C)O[C@@H]21` as the compound, how does the “inhibition of TNFa secretion (in words)” value ([1]; Parthenolide alone (0-5 uM)) read?
**A.** dose-dependent inhibition of TNFa secretion
